The target of experiment [1] is T1, Cytochrome P450 2A6 (Homo sapiens, UniProt P11509).
T1 sequence (P11509 whole entry): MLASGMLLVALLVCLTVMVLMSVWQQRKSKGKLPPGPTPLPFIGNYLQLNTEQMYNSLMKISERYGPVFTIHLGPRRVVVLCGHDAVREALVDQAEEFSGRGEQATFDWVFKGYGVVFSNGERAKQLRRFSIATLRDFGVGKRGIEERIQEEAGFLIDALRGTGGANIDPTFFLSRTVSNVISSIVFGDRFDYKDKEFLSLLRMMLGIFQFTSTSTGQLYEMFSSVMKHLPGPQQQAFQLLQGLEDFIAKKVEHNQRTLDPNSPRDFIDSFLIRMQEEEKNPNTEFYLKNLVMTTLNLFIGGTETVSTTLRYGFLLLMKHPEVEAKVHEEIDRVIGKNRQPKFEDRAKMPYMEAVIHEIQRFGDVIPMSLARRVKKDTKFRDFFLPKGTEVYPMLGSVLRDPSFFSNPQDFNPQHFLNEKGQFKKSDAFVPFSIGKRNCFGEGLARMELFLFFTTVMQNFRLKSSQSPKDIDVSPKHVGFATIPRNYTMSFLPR
The experiment in a line: Binding affinity to CYP2A6 (unknown origin) assessed as type 2 interaction as increase in absorbance 431 to 432 nm and decrease in 406 to 412 nm. Type of experiment: ADME.

The target of experiment [2] is T1, Cytochrome P450 2A6. Description: Mixed inhibition of CYP2A6 (unknown origin). Type of experiment: ADME.

Drawing on ChEMBL document CHEMBL3526117, “Evaluation of inhibition selectivity for human cytochrome P450 2A enzymes” (Drug Metab Dispos, 2012), this text covers Kd and Ki for one compound.

`N[C@@H]1C[C@H]1c1ccccc1.N[C@H]1C[C@@H]1c1ccccc1` (racemic) [TRANYLCYPROMINE]: the Kd in experiment [1] was 2000 nM. In experiment [2], the inhibitory constant (Ki) was 130 nM.

A word on the Kd: it is a measure of binding affinity in units of concentration. Usually Ki stands for the dissociation constant of the complex between target and ligand, obtained from inhibition or displacement. Low readings indicate tighter binding, high ones weaker binding.
